Earlier results on one molecule are cited in publication PMC3138877 (Cancer research, 2011).

For this series, the system named is ALK fusion positive NSCLC. The settings on record: phase I study, patients with ALK fusion positive NSCLC; cited from earlier work.

Take `C[C@@H](Oc1cc(-c2cnn(C3CCNCC3)c2)cnc1N)c1c(Cl)ccc(F)c1Cl` [PF-1066, crizotinib, reference compound]: the radiographic response rate is 57%.
